# Legend:
# [1] = test system: IL-8 release by U937 cells; test: Inflammatory cytokine release ELISA; conditions: A172 target cells plus anti-DNP antibodies, 50 nM or 1 μM, tested form: ammonium formate salt
# Procedure: Analysis of u937 secretion of 12 human inflammatory cytokines in the presence of anti-DNP antibodies and A172 target cells induced by ARM-U2 6-ABT-1 was carried out using the Multi-Analyte ELISArray Kit (MEH-004A, Qiagen). Sample preparation involved the immobilization of A172 target cells (approx. 1,000,000/3 ml T-flask) over the course of 24 hours at 37° C. followed by the addition of 1.5 ml phenol free RPMI assay media. 30 ul of 6-ABT-1 from 100×DMSO stocks or DMSO only was added (50 nM final 6-ABT-1 conc, 1% DMSO) followed by the addition of 30 ul anti-DNP antibody from 100× aqueous stocks (133 nM final concentration). 1.5 ml of IFN-gamma primed U937 cells suspended in phenol free RPMI assay media at a concentration of 2666.6 cells/ul, was then added and the plate incubated at 37° C. for 24 hr. Following incubation, the supernatant was collected, pelleted by centrifugation, and the supernatant collected and stored on ice. The ELISA plate pre-loaded with immobilized antibodies specific for each of the 12 cytokines tested was loaded with the cell supernatant collected, washed, and the bound cytokine detected all as described in the associated instruction manual available from Qiagen. The ELISA plate was read at an absorbance of 450 nm using a Perkin-Elmer Fluorescence plate reader with increases in absorbance at 450 nm proportional to bound cytokine. Results are show in FIG. 22.
# [2] = test system: A172 glioblastoma cells (cell surface uPAR); test: Flow cytometry antibody recruiting assay, A172 cells; conditions: tested form: ammonium formate salt
# Procedure: Next, we tested the ability of ARM-U2 derivatives to recruit anti-DNP antibodies to the surface of A-172 and B-16 cancer cells over-expressing uPAR. These assays involved the incubation of ARM-U2 derivatives with target cancer cells followed by the addition of biotinylated anti-DNP antibodies and streptavidin-AlexaFluor conjugates. After several washing steps, the amount of bifunctional ARM-U2 compound bound simultaneously to both the cell surface and anti-DNP antibodies was detected using flow cytometry by observing shifts in FL-2 and FL-3 fluorescence. These experiments were also conducted on both B16+uPAR cell lines and B16−uPAR cell lines in addition to studies on A172 cells in the presence and absence of exogenously added competitor uPAR to assess selective binding to the cell surface via cell surface uPAR.
# A172 glioblastoma cells (ATCC, CRL-1620) were suspended in Assay Media (phenol-free RPMI 1640 medium plus 10% ultra-low IgG FBS). 10^5 cells taken up in 50 μl media or media containing exogenous uPAR were mixed with a fixed concentration of the indicated ARM-U2 compound from 100×DMSO stocks. After a 1 hour incubation on ice, cells were washed with 1.5 mL of cold Assay Media, pelleted for 2 min at 200 rcf, aspirated, and resuspended in 100 L of fresh assay media with 133 nM of anti-DNP-biotin-xx conjugate antibody[…] (Invitrogen). Cells were allowed to incubate for an additional 30 min on ice, L of a 2 mg/mL stock of streptavidin-AlexaFluor647 conjugate[…] and then 1 (Invitrogen) was added. Negative control tubes contained streptavidin+/−antibody in the absence of ARM-U2. After 15 min more on ice, cells were washed 2× with 1.5 mL of cold Assay Media before flow cytometric analysis. Propidium iodide was added from a 1000× stock as a cell viability stain (FL-3 positive) and antibody recruiting to the cell surface was evaluated by measuring increasing cell counts in the FL-4 channel negative for FL-3 (lower right quadrant of representative dot plots). […]
structure (smiles),measurement,setting,value
O=C1c2ccccc2-c2onc3c(N4CCC[C@H](C(=O)NCCCOCCOCCOCCCNc5ccc([N+](=O)[O-])cc5[N+](=O)[O-])C4)cc(Nc4ccc(S(=O)(=O)O)cc4S(=O)(=O)O)c1c23,IL-8 release by U937 cells,[1],higher release of IL-8
same,IL-8 release by U937 cells,[1]; listed as ARM-U2,Higher levels of IL-8 secretion
same,"anti-DNP antibody recruiting to A172 cells, FL-4 shift","[2]; 10 uM compound, compared with 1-ABT-1",significantly higher percentage of antibody binding to the cell surface
same,anti-DNP antibody recruiting to A172 cells with exogenous competitor uPAR,[2]; exogenous competitor uPAR added,antibody recruitment could be disrupted
same,anti-DNP antibody recruiting to A172 cells,[2],recruited antibodies significantly better than the other ABT-1 derivatives

# Source: patent US10633374B2, “Small molecule based antibody-recruiting compounds for cancer treatment” (YALE UNIVERSITY, priority 2015, dated 2020)
